Earlier results, collected in PMC5060010 (ACS chemical biology, 2013).

Amino acid sequences for entries named in this document (tags omitted).
UniProt P35372, whole entry: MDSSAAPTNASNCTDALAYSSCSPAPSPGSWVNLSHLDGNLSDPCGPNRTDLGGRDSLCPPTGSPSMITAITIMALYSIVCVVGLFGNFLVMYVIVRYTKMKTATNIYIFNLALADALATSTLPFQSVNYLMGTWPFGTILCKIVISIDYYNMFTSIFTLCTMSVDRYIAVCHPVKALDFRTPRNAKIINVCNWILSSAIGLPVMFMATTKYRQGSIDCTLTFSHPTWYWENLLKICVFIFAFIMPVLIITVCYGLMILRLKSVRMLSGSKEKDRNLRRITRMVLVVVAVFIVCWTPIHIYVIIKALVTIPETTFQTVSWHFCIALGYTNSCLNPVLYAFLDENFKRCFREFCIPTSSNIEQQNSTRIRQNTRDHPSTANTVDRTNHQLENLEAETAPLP
UniProt P41143, whole entry: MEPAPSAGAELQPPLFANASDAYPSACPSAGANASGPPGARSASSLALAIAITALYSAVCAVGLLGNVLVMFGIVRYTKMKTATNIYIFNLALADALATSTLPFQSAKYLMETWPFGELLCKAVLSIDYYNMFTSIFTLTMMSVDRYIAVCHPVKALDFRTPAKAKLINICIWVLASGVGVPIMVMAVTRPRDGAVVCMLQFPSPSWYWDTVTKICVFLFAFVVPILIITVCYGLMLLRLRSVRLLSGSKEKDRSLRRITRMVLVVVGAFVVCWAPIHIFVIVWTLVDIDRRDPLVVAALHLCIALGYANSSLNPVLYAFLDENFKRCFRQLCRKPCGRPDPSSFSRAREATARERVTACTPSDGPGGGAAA

Biological target: mu-delta heteromer (Homo sapiens, UniProt P35372+P41143)
Settings: cited from earlier work

DAMGO
co-internalization of mu-delta heteromer: co-internalize mu-delta heteromer
